Experimental data from US20260108686A1 (Belhaven BioPharma Inc., priority 2024, published 2026).

Experiment: Study 101, plasma epinephrine pharmacokinetics
Assay type: in vivo, human
Set-up: unit not given beside the values
Conditions: 0.5 mg IM
Procedure: Each patient was provided each treatment of the trial with 72-hour washout periods between each treatment, beginning with a 3.5 mg intranasal dose, followed by a 0.3 mg intramuscular dose, followed by a 0.5 mg intramuscular dose, and concluding with a 5.5 mg intranasal dose, with a safety follow-up performed 3 to 5 days after the final dose was administered. The primary endpoints of the study were pharmacokinetic measurements and assessments of comparative bioavailability, while the secondary endpoints were safety concerns and pharmacodynamic assessments.

Cmax (GeoMean): 382.3
Compound: CNC[C@H](O)c1ccc(O)c(O)c1 [Epinephrine IM, epinephrine]
